These results are taken from patent US12435128B2, “Method for predicting therapeutic effect of LSD1 inhibitor based on expression of INSM1” (TAIHO PHARMACEUTICAL CO., LTD., priority 2017, dated 2025).

Structures are written as SMILES.

A word on the IC50: it is the point on the concentration scale where inhibition reaches its midpoint.

The test system of this experiment is NCI-H146 cells (human small-cell lung cancer cell lines). The experiment is described as follows: Cell-growth inhibition test: NCI-H146 cells. The experiment is classed as cell-based. As to the method:
Under the following conditions, an in vitro cell-growth inhibition test was performed with respect to HEL cells (human acute myelocytic leukemia cell lines), NCI-H1417 cells (human small-cell lung cancer cell lines), and NCI-H146 cells (human small-cell lung cancer cell lines).
The cells with the Example compound or with dimethylsulfoxide alone were cultured at 37° C. in a 5% carbon-dioxide-containing incubator for 5 days (HEL cells) or 10 days (NCI-H1417 cells and NCI-H146 cells). After culture, the plate was allowed to stand at room temperature for 30 minutes, and 100 μL of the supernatant was removed from each well to leave 100 μL of the cell culture solution. To each well containing the remaining 100 μL of the cell culture solution, the same amount of CellTiter-Glo 2.0 Assay (Promega, Cat #: G9242) was added. The microplate was shaken with a plate mixer for 1 minute and then allowed to stand in a dark place for 10 minutes. Thereafter, the luminescence intensity of viable cells in each well was measured using a microplate reader (PerkinElmer, EnSpire). […] Cell growth rate(%)=T/C×100 • T: The luminescence intensity in a well to which the test compound was added (count per second) • C: The luminescence intensity in a well to which dimethylsulfoxide alone was added (count per second)

In the case of `CC(C)(O)Cn1nc(Br)c2cc(-c3ccc(C(=O)N4[C@@H]5CC[C@H]4C[C@@H](N)C5)cc3-c3ccc(C#N)c(F)c3)c(F)cc21` [Example 178, 5′-((3-endo)-3-amino-8-azabicyclo[3.2.1]octane-8-carbonyl)-2′-(3-bromo-6-fluoro-1-(2-hydroxy-2-methylpropyl)-1H-indazol-5-yl)-3-fluoro-[1,1′-biphenyl]-4-carbonitrile], the midpoint of inhibition, the IC50, lay at 1.22 nM.
